# In PubChem BioAssay AID1515 (The Scripps Research Institute Molecular Screening Center, 2009):
# Protein sequences, listed by entry. Tags and fused reporters are not part of them.
# UniProt O75884, whole entry: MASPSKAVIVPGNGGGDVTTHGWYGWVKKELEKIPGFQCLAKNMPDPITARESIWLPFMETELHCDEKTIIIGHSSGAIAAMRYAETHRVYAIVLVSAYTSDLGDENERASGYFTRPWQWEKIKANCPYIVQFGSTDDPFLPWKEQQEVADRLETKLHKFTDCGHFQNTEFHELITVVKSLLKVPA
# The entries are a selection whose mix differs from that of the whole data set. Calls of active or inactive are those of the source.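 How the source made its calls: active means inhibition above the campaign mean of all tested compounds plus 3 SD (cut at about 14% in these data); inactive means the rest.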
# Biological target: Serine hydrolase RBBP9 (Homo sapiens) (UniProt O75884)
# Experiment: human RBBP9 inhibitors, primary screen, biochemical, fluorescence polarization, FP-Rh probe, HTS (AID 1515);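 further: plate controls were DMSO wells with RBBP9 for no effect and wells lacking RBBP9 protein for full effect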
# Conditions: recombinant RBBP9, FP-Rh probe fluorescence polarization; at 7.94 µM; hits give high values
row,SMILES,inhibition
1,Cc1cc(C)cc(OP(C)(=O)Nc2ccc(C)cc2C)c1 (stereo not drawn),inactive: -3.61%
2,CCN(CC)CCCOC(=O)C(O)(c1ccccc1)c1ccccc1,inactive: 3.64%
3,COc1ccccc1OP(C)(=O)Nc1ccc(C)cc1 (stereo not drawn),inactive: -12.4%
4,Cc1ccc(NP(C)(=O)Oc2ccccc2)c(C)c1 (stereo not drawn),inactive: 5.47%
5,CCOC(=O)c1ccc(NP(C)(=O)Oc2ccccc2)cc1 (stereo not drawn),inactive: -8.2%
6,Cc1cc(C)cc(OP(C)(N)=O)c1 (stereo not drawn),inactive: -5.63%
7,COc1ccccc1OP(C)(=O)Nc1cc(Cl)ccc1C (stereo not drawn),inactive: -3.67%
8,COc1ccc(OP(C)(=O)Nc2cccc(F)c2)cc1 (stereo not drawn),inactive: -8.88%
9,O=[N+]([O-])c1ccc2c(c1)C=Nc1ccccc1O2,inactive: -6.07%
10,CC(C)(C)c1ccc(OP(C)(=O)Nc2ccc(SC(F)(F)F)cc2)cc1 (stereo not drawn),inactive: 1.19%
11,Cc1cccc(C)c1OP(C)(N)=O (stereo not drawn),inactive: 7.79%
12,CP(=S)(Nn1cnnc1)Oc1ccccc1 (stereo not drawn),inactive: -1.95%
13,CP(=O)(Nc1ccccc1Br)Oc1ccccc1 (stereo not drawn),inactive: -5.39%
14,COc1ccccc1OP(C)(=O)Nc1ccccc1 (stereo not drawn),inactive: -6.54%
15,CCOC(=O)c1ccc(NP(C)(=O)Oc2ccc(OC)cc2)cc1 (stereo not drawn),inactive: 0.71%
16,CCOP(C)(=S)SCC(=O)NC(C)C(=O)O (stereo not drawn),inactive: -6.75%
17,CP(=O)(Nc1ccccn1)Oc1ccc(Cl)cc1 (stereo not drawn),inactive: -9.49%
18,Cc1cccc(C)c1OP(C)(=O)Nc1ccc(SC(F)(F)F)cc1 (stereo not drawn),inactive: -4.93%
19,CP(=O)(Nc1ccc(SC(F)(F)F)cc1)Oc1ccc(Cl)cc1 (stereo not drawn),inactive: -4.3%
20,CP(=O)(Oc1ccccc1)OC(c1ccccc1)C(F)(F)F (stereo not drawn),inactive: -1.14%
21,CCc1ccc(OP(C)(=O)N2CCN(c3ccc([N+](=O)[O-])cc3)CC2)cc1 (stereo not drawn),inactive: -10.7%
22,CP(=O)(NC(=O)Nc1ccccc1)Oc1ccccc1 (stereo not drawn),inactive: -0.38%
23,Cc1cc(C)cc(OP(C)(=O)Nc2ccc(SC(F)(F)F)cc2)c1 (stereo not drawn),inactive: -9.45%
